Earlier results in publication PMC10444817, “New proapoptotic chemotherapeutic agents based on the quinolone-3-carboxamide scaffold acting by VEGFR-2 inhibition” (Scientific Reports, 2023).

Test system: VEGFR-2 gene
Conditions: cited from earlier work

Structure (SMILES): CNC(=O)c1cc(Oc2ccc(NC(=O)Nc3ccc(Cl)c(C(F)(F)F)c3)cc2)ccn1 [Sorafenib]
- Effect on VEGFR-2 expression in HepG2 cells: upregulation of VEGFR-2
